Measured values from patent US10287301B2 (Achillion Pharmaceuticals, Inc., priority 2015, dated 2019).

Sequences of proteins named here, by UniProt entry; tags and fusion partners are left off. Residues count along the entry.
UniProt P00746, 26-253: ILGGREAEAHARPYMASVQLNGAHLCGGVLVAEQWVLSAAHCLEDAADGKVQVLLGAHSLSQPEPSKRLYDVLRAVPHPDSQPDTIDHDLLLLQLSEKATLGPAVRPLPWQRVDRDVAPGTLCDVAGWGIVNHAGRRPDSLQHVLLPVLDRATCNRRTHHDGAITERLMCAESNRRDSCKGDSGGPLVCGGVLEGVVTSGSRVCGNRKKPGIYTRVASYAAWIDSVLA

What follows are compounds tested against Human Factor D (Homo sapiens (Human), UniProt P00746) (assay: Human Factor D Assay). Conditions: not given.
Format: biochemical
Method: Human Factor D (purified from human serum, Complement Technology, Inc.) at 80 nM final concentration was incubated with test compound at various concentrations for 5 minutes at room temperature in 50 mM Tris, 1M NaCl, pH 7.5. A synthetic substrate Z-L-Lys-SBzl and DTNB (Ellman's reagent) are added to final concentrations of 100 μM each. […] IC50 values are calculated by nonlinear regression of complement Factor D reaction rates as a function of test compound concentration.
For CC(=O)c1nn(CC(=O)N2C[C@H](F)C[C@H]2C(=O)Nc2cccc(Br)c2C#N)c2ccc(-c3cnc(C)nc3)cc12 [Compound 280, (2S,4R)-1-(2-(3-acetyl-5-(2-methylpyrimidin-5-yl)-1H-indazol-1-yl)acetyl)-N-(3-bromo-2-cyanophenyl)-4-fluoropyrrolidine-2-carboxamide], the IC50 was 1 to 10 µM.
For CC(=O)c1nn(CC(=O)N2C[C@H](F)C[C@H]2C(=O)N[C@H](C)C(F)=C(C)C)c2ccc(-c3cnc(C)nc3)cc12 [Compound 613, (2S,4R)-1-(2-(3-Acetyl-5-(2-methylpyrimidin-5-yl)-1H-indazol-1-yl)acetyl)-4-fluoro-N—((R)-3-fluoro-4-methylpent-3-en-2-yl)pyrrolidine-2-carboxamide], the IC50 was 1 to 10 µM.
Work on CC(=O)c1nn(CC(=O)N2CCC[C@H]2C(=O)Nc2cccc(C)n2)c2ccc(-c3cnc4n3CCCC4)cc12 [Compound 700, (S)-1-(2-(3-Acetyl-5-(5,6,7,8-tetrahydroimidazo[1,2-a]pyridin-3-yl)-1H-indazol-1-yl)acetyl)-N-(6-methylpyridin-2-yl)pyrrolidine-2-carboxamide] yielded an IC50 of 1 to 10 µM.
Work on CC(=O)c1cn(CC(=O)N2CC[C@H]2C(=O)Nc2cccc(C)n2)c2ccc(-c3cnc4cc(C)nn4c3)cc12 [Compound 692, (S)-1-(2-(3-Acetyl-5-(2-methylpyrazolo[1,5-a]pyrimidin-6-yl)-1H-indol-1-yl)acetyl)-N-(6-methylpyridin-2-yl)azetidine-2-carboxamide] yielded an IC50 of 1 to 10 µM.
Compound CC(=O)c1nn(CC(=O)N2CC[C@H]2C(=O)Nc2cccc(C)n2)c2ccc(-c3ccc4cccnc4c3)cc12 [Compound 590, (S)-1-(2-(3-Acetyl-5-(quinolin-7-yl)-1H-indazol-1-yl)acetyl)-N-(6-methylpyridin-2-yl)azetidine-2-carboxamide] has an IC50 of 1 to 10 µM.
Compound CC(=O)c1cn(CC(=O)N2C[C@H](F)C[C@H]2CCNS(=O)(=O)c2ccccc2)c2ccc(-c3cnc(C)nc3)cc12 [Compound 510, N-(2-((2R,4R)-1-(2-(3-Acetyl-5-(2-methylpyrimidin-5-yl)-1H-indol-1-yl)acetyl)-4-fluoropyrrolidin-2-yl)ethyl)benzenesulfonamide] has an IC50 of 1 to 10 µM.
Cc1c([C@H](C)NC(=O)[C@@H]2C[C@@H](F)CN2C(=O)Cn2nc(C(N)=O)c3cc(-c4ccnnc4)ccc32)oc2ccc(F)cc12 [Compound 184, 1-(2-((2S,4R)-4-fluoro-2-((S)-1-(5-fluoro-3-methylbenzofuran-2-yl)ethylcarbamoyl)pyrrolidin-1-yl)-2-oxoethyl)-5-(pyridazin-4-yl)-1H-indazole-3-carboxamide] showed an IC50 of 1 to 10 µM.
Work on NC(=O)c1nn(CC(=O)N2C[C@H](F)C[C@H]2C(=O)Nc2cccc(Br)n2)c2ccc(-c3[nH]nnc3-c3ncccn3)cc12 [Compound 252, 1-(2-((2S,4R)-2-(6-bromopyridin-2-ylcarbamoyl)-4-fluoropyrrolidin-1-yl)-2-oxoethyl)-5-(4-(pyrimidin-2-yl)-1H-1,2,3-triazol-5-yl)-1H-indazole-3-carboxamide] yielded an IC50 of 1 to 10 µM.
Cc1cccc(NC(=O)[C@@H]2[C@H]3CC[C@H](C3)N2C(=O)Cn2cc(C(N)=O)c3cc(-c4cnc5cc(C)nn5c4)ccc32)n1 [Compound 691, 5-(2-Methylpyrazolo[1,5-a]pyrimidin-6-yl)-1-(2-((1R,3S,4S)-3-(6-methylpyridin-2-ylcarbamoyl)-2-azabicyclo[2.2.1]heptan-2-yl)-2-oxoethyl)-1H-indole-3-carboxamide] gave an IC50 of 1 to 10 µM.
Compound CC(=O)c1cn(CC(=O)N2C[C@H](F)C[C@H]2C(=O)Nc2cccnc2Cl)c2ccc(-c3ccnnc3)cc12 [Compound 166, (2S,4R)-1-(2-(3-acetyl-5-(pyridazin-4-yl)-1H-indol-1-yl)acetyl)-N-(2-chloropyridin-3-yl)-4-fluoropyrrolidine-2-carboxamide] has an IC50 of 1 to 10 µM.
Cc1[nH]nc(NC(=O)[C@@H]2C[C@@H](F)CN2C(=O)Cn2nc(C(N)=O)c3cc(-c4ccnnc4)ccc32)c1-c1ccccc1 [Compound 170, 1-(2-((2S,4R)-4-fluoro-2-(5-methyl-4-phenyl-1H-pyrazol-3-ylcarbamoyl)pyrrolidin-1-yl)-2-oxoethyl)-5-(pyridazin-4-yl)-1H-indazole-3-carboxamide] gave an IC50 of 1 to 10 µM.
Compound CCCCCC(=O)NC1CCC(NC(=O)[C@@H]2C[C@@H](F)CN2C(=O)Cn2nc(C(C)=O)c3cc(-c4cnc(C)nc4)ccc32)CC1 (stereo partly drawn) [Compound 233, (2S,4R)-1-(2-(3-acetyl-5-(2-methylpyrimidin-5-yl)-1H-indazol-1-yl)acetyl)-4-fluoro-N-(4-hexanamidocyclohexyl) pyrrolidine-2-carboxamide] has an IC50 of 1 to 10 µM.
For CC(=O)c1cn(CC(=O)N2C[C@H](F)C[C@H]2CCNS(=O)(=O)c2ccccc2)c2ccc(-c3cnc4cc(C)nn4c3)cc12 [Compound 697, N-(2-((2R,4R)-1-(2-(3-acetyl-5-(2-methylpyrazolo[1,5-a]pyrimidin-6-yl)-1H-indol-1-yl)acetyl)-4-fluoropyrrolidin-2-yl)ethyl)benzenesulfonamide], the IC50 was 1 to 10 µM.
In the case of CC(=O)c1nn(CC(=O)N2C[C@H](F)C[C@H]2C(=O)Nc2ccnc(C)c2)c2ccc(-c3cnc(C)nc3)cc12 [Compound 565, (2S,4R)-1-(2-(3-Acetyl-5-(2-methylpyrimidin-5-yl)-1H-indazol-1-yl)acetyl)-4-fluoro-N-(2-methylpyridin-4-yl)pyrrolidine-2-carboxamide], the IC50 is reported as 1 to 10 µM.
CC(=O)c1nn(CC(=O)N2C[C@@H]3C[C@@H]3[C@@H]2C(=O)Nc2cccc(Br)n2)c2ccc(-c3cnc(C)nc3)cc12 [Compound 414, (1S,2R,5R)-3-(2-(3-Acetyl-5-(2-methylpyrimidin-5-yl)-1H-indazol-1-yl)acetyl)-N-(6-bromopyridin-2-yl)-3-azabicyclo[3.1.0]hexane-2-carboxamide] gave an IC50 of 1 to 10 µM.

Same assay, conditions: Human Factor D, Table 3
CC(=O)c1nn(CC(=O)N2C3CC3(CN3CCOCC3)C[C@H]2C(=O)Nc2nc(Br)ccc2C)c2ccc(-c3cnc(C)nc3)cc12 (stereo partly drawn) [Compound 754, (3S)-2-(2-(3-acetyl-5-(2-methylpyrimidin-5-yl)-1H-indazol-1-yl)acetyl)-N-(6-bromo-3-methylpyridin-2-yl)-5-(morpholinomethyl)-2-azabicyclo[3.1.0] hexane-3-carboxamide] showed an IC50 of 1 to 10 µM.

Same assay, conditions: Table 3; Human Factor D 80 nM, substrate Z-L-Lys-SBzl; read-out: IC50 (Stars)
CC(=O)c1nn(CC(=O)N2C[C@H](F)CC2C(=O)Nc2cccc(Br)n2)c2ccc(-c3cnc(C)nc3)cc12 (stereo partly drawn) [Compound 476] was tested, and the IC50 was greater than 10 µM.
In the case of CC(=O)c1nn(CC(=O)N2C[C@@H](F)C[C@@H]2C(=O)Nc2cccc(Br)n2)c2ccc(-c3cnc(C)nc3)cc12 [Compound 518, (2R,4S)-1-(2-(3-acetyl-5-(2-methylpyrimidin-5-yl)-1H-indazol-1-yl)acetyl)-N-(6-bromopyridin-2-yl)-4-fluoropyrrolidine-2-carboxamide], the IC50 is reported as greater than 10 µM.
